Source: IntAct's records for PubMed 18716626

B1: Shugoshin 1 (Homo sapiens), Q5FBB7-6 (parent)
chain: MAKERCLKKSFQDSLEDIKKRMKEKRNKNLAEIGKRRSFIAAPCQIITNTSTLLKNYQDNNKMLVLALENEKSKVKEAQDIILQLRKECYYLTCQLYALKGKLTSQQTVEPAQNQEICSSGMDPNSDDSSRNLFVKDLPQIPLEETELPGQGESFQIEDQIPTIPQDTLGVDFDSGEAKSTDNVLPRTVSVRSSLKKHCNSICQFDSLDDFETSHLAGKSFEFERVGFLDPLVNMHIPENVQHNACQWSKDQVNLSPKLIQPGTFTKTKEDILESKSEQTKSKQRDTQERKREEKRKANRRKSKRMSKYKENKSENKKTVPQKKMHKSVSSNDAYNFNLEEGVHLTPFRQKVSNDSNREENNESEVSLCESSGSGDDSDDLYLPTCKYIQNPTSNSDRPVTRPLAKRALKYTDEKETEGSKPTKTPTTTPPETQQSPHLSLKDITNVSLYPVVKIRRLSLSPKKNKASPAVALPKRRCTASVNYKEPTLASKLRRGDPFTDLCFLNSPIFKQKKDLRRSKKSMKQIQ

Variants of: B1
Settings: with cbx5_human CBX5

Row | effect of a mutation on the interaction | Variant
1 | disrupting interaction strength | MAKERCLKKSFQDSLEDIKKRMKEKRNKNLAEIGKRRSFIAAPCQIITNTSTLLKNYQDNNKMLVLALENEKSKVKEAQDIILQLRKECYYLTCQLYALKGKLTSQQTVEPAQNQEICSSGMDPNSDDSSRNLFVKDLPQIPLEETELPGQGESFQIEDQIPTIPQDTLGVDFDSGEAKSTDNVLPRTVSVRSSLKKHCNSICQFDSLDDFETSHLAGKSFEFERVGFLDPLVNMHIPENVQHNACQWSKDQVNLSPKLIQPGTFTKTKEDILESKSEQTKSKQRDTQERKREEKRKANRRKSKRMSKYKENKSENKKTVPQKKMHKSVSSNDAYNFNLEEGVHLTPFRQKVSNDSNREENNESEVSLCESSGSGDDSDDLYLPTCKYIQNPTSNSDRPVTRPLAKRALKYTDEKETEGSKPTKTPTTTPPETQQSPHLSLKDITNVSLYPVEKIRRLSLSPKKNKASPAVALPKRRCTASVNYKEPTLASKLRRGDPFTDLCFLNSPIFKQKKDLRRSKKSMKQIQ [V453E]
